We go through one compound from publication PMC6318807 (ACS chemical neuroscience, 2018).

Sequences of proteins named here, by UniProt entry; tags and fusion partners are left off. A change or cut given only in a name is not applied to a line headed by its entry.
UniProt P43116: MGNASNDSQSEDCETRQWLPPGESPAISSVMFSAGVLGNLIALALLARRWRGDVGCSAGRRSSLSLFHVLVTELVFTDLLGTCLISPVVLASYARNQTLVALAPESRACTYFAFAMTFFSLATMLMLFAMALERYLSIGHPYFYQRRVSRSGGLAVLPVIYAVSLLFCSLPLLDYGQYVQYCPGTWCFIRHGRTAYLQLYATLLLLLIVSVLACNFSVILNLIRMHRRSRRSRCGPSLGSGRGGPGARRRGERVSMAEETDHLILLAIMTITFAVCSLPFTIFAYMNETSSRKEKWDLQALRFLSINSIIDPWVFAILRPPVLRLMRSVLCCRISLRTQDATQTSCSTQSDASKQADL

In the assay the target is EP2 receptor (Homo sapiens, UniProt P43116). In words: TR-FRET cAMP assay in C6G-EP2 cells. In kind it is cell-based.

By EC50 is commonly meant the concentration giving half of the maximal effect. Low readings indicate a more potent agent, high ones a less potent agent. Take `CCCCC[C@H](O)/C=C/[C@H]1[C@H](O)CC(=O)[C@@H]1C/C=C\CCCC(=O)O` [PGE2]: a half-maximal effect (EC50) was put at 1.19 nM.
